We go through 4 molecules from patent publication US7105575B2, “Methods for the treatment of neuro- disorders using aminothiol compounds” (Medimmune Oncology Inc., priority 1997, dated 2006).

Bounds are passed on as bounds.

Series [1] concerns V79-B310H Chinese hamster cells. The conditions noted are these: cited from earlier work.
The subject of series [2] is DNA of salmon sperm. The conditions noted are these: compounds present concomitantly with cisplatin, in vitro; cited from earlier work.
Series [3] concerns cells. The conditions noted are these: compounds incubated with cells one hour after cisplatin exposure; cited from earlier work.
Series [4] deals with severe neurotoxicities of right arm, leg pain. The series is described as follows: Example 2 case study: amifostine for chemotherapy-induced neurotoxicities (carboplatinum, vinblastine, methotrexate). It counts as in vivo, human. The source says:
The patient who is a survivor of the concentration camps of World War II, was diagnosed with bladder cancer that had metastized to the lungs. They received 3 cycles carboplatinum, vinblastine and methotrexate. While in the concentration camp, the patient suffered damage to their lower legs which caused them constant pain.

Series [5] concerns neurotoxicities. The series is described as follows: Example 4 case study: amifostine in MDS patient with neurotoxicities from CHOP chemotherapy. It is filed as in vivo, human.
Series [6] has as its system neurotoxicities / neuropathy.
Series [7] concerns cisplatin nephrotoxicity. The conditions noted are these: amifostine given 30 minutes after cisplatin; cited from earlier work.
Series [8] concerns cisplatin neuropathy. The conditions noted are these: cited from earlier work.
In series [9] the test system is paclitaxel neuropathies and arthralgias/myalgias. The conditions noted are these: pretreatment with amifostine, escalating doses of paclitaxel; cited from earlier work.
Series [10] deals with cisplatin-induced renal failure. The series is described as follows: Example 1 case study: amifostine given after cisplatin-induced renal failure. The conditions noted are these: for overall clinical status (in words) / renal function (in words): amifostine 400 mg iv for 3 days; for renal function (in words): started after renal failure had developed.
For series [11] the following is noted: cited from earlier work.
Where [12] appears, read: 500 mg amifostine over 10 minutes.
Setting [13] is: paclitaxel 135 mg/m^2 iv day 1, cisplatin 100 mg/m^2 intraperitoneally day 2, before amifostine.

Turning to `NCCCNCCS` [WR-1065, S-2-(3-aminopropylamino) ethanethiol], in series [1] (administered before, during and immediately after cisplatin treatment), the “protection against cis-DDP cytotoxicity” value was “protects against cytotoxicity”. In addition, the “protection during versus immediately following cisplatin exposure” value in series [1] was “little if any difference in the magnitude of protection”. Further, the “timing of maximum protection” value in series [1] (presence in cell growth medium relative to cisplatin exposure) is given as “maximum protection was obtained when WR-1065 was present in the cell growth medium for 30 minutes prior to exposure”. Moreover, in series [2], the “platination of salmon sperm DNA, co-incubation” value (shortened to “platination of salmon sperm DNA”) is “caused a decrease in the platination”. In addition, the “protection from cytostatic effect of cisplatin” value in [3] is given as “neither WR-1065 nor WR-2721 (amifostine) could protect cells”.

Take `NCCCNCCSSCCNCCCN` [WR-33278]: the “platination of salmon sperm DNA” value in series [2] was “caused a decrease in the platination”.

As to `NCCCNCCSP(=O)(O)O` [amifostine, S-2-(3-aminopropylamino)ethyl dihydrogen phosphorothioate], in series [4] (setting [12]), the “leg pain two days after infusion” value was “the pain in their legs was getting better” and the “walking ability two days after infusion” value is given as “able to walk without their cane”. In addition, the “pain reported two days after infusion” value in series [4] (person, 500 mg amifostine in 50 cc saline over 10 minutes) is reported as “no pain for the first time in months”. Besides, in series [4] (subsequent Ethyol infusions), the “arm pain after subsequent infusions” value was “remained without arm pain” and the “leg pain after subsequent infusions” value is recorded as “The pain in their legs has improved”. The “analgesic need (Duragesic patches)” value in series [4] (subsequent Ethyol infusions, before: 2 patches of 100 mcg/hr) is reported as “managing with only one Duragesic Patch”. The “general status on continued treatment” value in [5] (continues on Ethyol for MDS) was “doing well”. For the same molecule, the “neurotoxicities, patient statement after five weeks” value in series [5] (person, Ethyol 840 mg Monday, Wednesday, Friday each week, neurotoxicities for eight years after CHOP) is “neurotoxicities were better since receiving amifostine”. Further, the “neuropathy one month after termination” value in [6] (after four amifostine treatments) is reported as “neuropathy remained stable”. Besides, in series [6] (person, amifostine 970 mg in 50 cc saline over 10 minutes, premedicated with Zofran and Decadron), the “tolerability of first infusion” value is listed as “tolerated this treatment without problems”. In addition, the “platination of salmon sperm DNA” value in series [2] is reported as “caused a decrease in the platination”. In addition, the “protection from cytostatic effect of cisplatin” value in series [3] is listed as “neither WR-1065 nor WR-2721 (amifostine) could protect cells”. Also, the protection from nephrotoxicity result in series [7] is listed as “did not protect mice at all from nephrotoxicity”. The “incidence of cisplatin neuropathies” value in series [8] (pretreatment with amifostine, prospective evaluation (Mollman 1988)) was “significantly lower incidence of cisplatin neuropathies”. For the same molecule, the “occurrence and severity of cisplatin neuropathy” value in [8] (pretreatment, randomized trial cisplatin and cyclophosphamide±amifostine, advanced ovarian cancer (Kemp 1996)) was “significantly reduce the occurrence and severity of cisplatin neuropathy”. In addition, in series [9], the tolerated paclitaxel dose entry was “allowed both higher single doses and cumulative doses of paclitaxel to be administered without the occurrence of dose limiting neuropathies and arthralgias/myalgias”. The “serum creatinine level following treatment with amifostine (FIG. 1)” value in series [10] (FIG. 1, start about 1.0, maximum about 5.5 mg/dL after cisplatin) is “about 2.8 mg/dL”. The “creatinine at further amifostine dose after follow-up clinic visit” value in series [10] (about 8 days after second discharge, when amifostine 400 mg iv was given again) stood at 2.5 mg/dL. Further, in series [10] (after 3 days of amifostine 400 mg iv, peak 6.0 mg/dL before amifostine), the “serum creatinine by hospital day 12 / discharge day 13” value is given as 2.8 mg/dL. Moreover, the “serum creatinine approximately 6 months later” value in [10] (after final 2-week course of amifostine 400 mg, 5 doses) was 2.0 mg/dL. Besides, in series [10], the “overall clinical status (in words)” value is listed as “improvement in their overall clinical status” and the “renal function (in words)” value is “partial recovery of their renal function”. In addition, in series [10] (listed as Amifostine), the “renal function (in words)” value is recorded as “partially reversed the toxic renal effects of cisplatin” and the “overall clinical status (in words)” value is reported as “overall clinical status improved”. For the same molecule, the tolerability entry in [10] (amifostine 400 mg per day iv on post-cisplatin days 7, 8, 9) was “tolerated therapy well, with only mild nausea”. In [10] (patient, amifostine 400 mg per day iv on post-cisplatin days 7, 8, 9, peak 6.0 mg/dL before amifostine), the “serum creatinine on day 3 of amifostine therapy” value is 4.6 mg/dL. Also, the “renal function during readmission (in words)” value in series [10] (readmission, 5 days, amifostine 400 mg iv on hospital day 2) is given as “renal function stabilized”. In [10] (readmission, amifostine 400 mg iv once on hospital day 2, ondansetron 24 mg as needed), the tolerability result is on record as “tolerated the treatment well”.

Turning to `N.N.[Cl][Pt][Cl]` [cisplatin, cis-diamminedichloroplatinum], the “potential permanent loss of normal renal function” value in series [11] (nephrotoxicity produced by drugs such as cisplatin (Kemp 1996)) was not below 50%. In addition, the patients with myelosuppression in series [11] (patients treated with cisplatin) is reported as 25–30%. The “maximum serum creatinine level after administration of cisplatin (FIG. 1)” value in series [10] (FIG. 1, starting level about 1.0 mg/dL) is on record as “about 5.5 mg/dL”. Besides, in [10] (setting [13]), the “BUN by hospital day 5 after chemotherapy” value was 39 mg/dL and the “serum creatinine by hospital day 5 after chemotherapy” value amounted to 4.9 mg/dL.
